For two molecules, binding result and Kd results are on record in publication PMC6776900, “PPM1G forms a PPP‐type phosphatase holoenzyme with B56δ that maintains adherens junction integrity” (EMBO Reports, 2019).

The target of experiment [1] is T1, GST-B56δ Δ91–102 (human, UniProt Q14738, Δ91–102).
T1 construct: source: E. coli BL21 (DE3), purified (glutathione Sepharose)
In words: pull-down; GST-tagged bait on glutathione Sepharose beads incubated with MBP-tagged prey for 1 h at 4°C, detection with MBP antibody. The conditions noted are these: both partners purified.

Experiment [2] concerns the target T2, GST-B56δ (human, UniProt Q14738).
T2 construct: PP2A regulatory subunit B56δ (PPP2R5D), human cDNA, full-length protein; also called GST-B56δ wild type (WT); GST-tagged B56δ; source: E. coli BL21 (DE3), purified (glutathione Sepharose)
In words: BLI; Octet Red 96; His-tagged PPM1G or PPP2R1A immobilised on Ni-NTA biosensors, GST-B56δ proteins in solution (100–400 nm); 50 mM Tris pH 7.5, 300 mM NaCl, 0.01% NP-40 Igepal, 1 mM DTT; 25 °C. The conditions noted are these: both partners purified. In general terms: BLI is a label-free optical method that tracks binding on a fibre tip over time.

B1: MBP-PPP2R1A (natural protein)
chain: not shown
notes: PPP2R1A, scaffold (A) subunit of PP2A, full-length protein; source: E. coli BL21 (DE3), purified
Take B1: the binding result in experiment [1] is “binds”.

B2: 6xHis-tagged PPP2R1A (natural protein)
chain: not shown
notes: PPP2R1A, scaffold (A) subunit of PP2A; source: recombinant
As to B2, the Kd in experiment [2] was found to be 3.6 nM.

By Kd is commonly meant the free concentration of one partner at which half of the binding sites on the other are occupied at equilibrium, for simple one-to-one binding.
